Experimental data taken from patent publication US10682430B2, “Alpha-emitting complexes” (BAYER AS, priority 2010, dated 2020).

Tests used:
SK-OV-3 xenografts = conditions: 15 kBq i.v. (2700 Bq/μg)
SK-OV-3 cells [1] = assay: Assessment of binding over time (^227Th-activity on cell pellets over 7 days); type: cell-based
SK-OV-3 cells [2] = assay: Cytotoxicity: luminescence (ATP, Cell Titer-Glo) measurement of metabolic activity; type: cell-based; conditions: 20 kBq/mL (10166 Bq/μg), 1 hour exposure
SK-OV-3 cells [3] = assay: Determining the immunoreactive fraction (quality control of labeled conjugate); conditions: fixed SK-OV-3 cells, 37° C., 2.5 hours; IRF = total binding − unspecific binding
[4] = 700 kBq added, after 1 hour incubation

Substance	uptake in skull and femur (SK-OV-3 xenografts; 24 h)	concentration in blood (SK-OV-3 xenografts; 4 days)	^227Th-activity on the cell pellet (SK-OV-3 cells [1]; [4]) [kBq]	^227Th-activity on the cell pellet as share of added activity (SK-OV-3 cells [1]; [4]) [%]	binding/retention on SK-OV-3 cells (conclusion) (SK-OV-3 cells [1]; over 7 days)	cell state at day nine (SK-OV-3 cells [2])	Average IRF (SK-OV-3 cells [3]) [%]
^227Th-ALG-DD-NCS-trastuzumab: ALG-DD-NCS chelator conjugated to monoclonal antibody trastuzumab and labeled with thorium-227	2.8-3.2%	around 1 % ID/g	77	11	efficiently retained	almost all cells were dead	–
Batch B: batch of ^227Th-ALG-DD-NCS-trastuzumab, specific activity 2 700 Bq/μg, used in Example 10	–	–	–	–	–	–	60
